Tested on: Ramos B cells
Experiment: CDC activity, propidium iodide flow cytometry with human serum
Type: cell-based
Settings: TRU-015 from CHO cells treated with 30 μg/ml castanospermine
Protocol: To determine the CDC activity of TRU-016 purified protein produced according to Example 2, Ramos B cells were suspended in Iscoves (Gibco/Invitrogen, Grand Island, N.Y.) at 5×10^5 cells/well in 75 μl. TRU-016 (75 μl) were added to the cells at twice the concentrations indicated. Binding reactions were allowed to proceed for 45 minutes prior to centrifugation and washing in serum-free Iscoves. Cells were resuspended in Iscoves with human serum (containing complement) at various concentrations. The cells were incubated 60 minutes at 37° C. Cells were washed by centrifugation and resuspended in staining media with 0.5 μg/ml propidium iodide. Samples were incubated 15 minutes at room temperature in the dark prior to analysis by flow cytometry using a FACsCalibur and CellQuest software (Becton Dickinson).

**Q.** How did the “CDC compared with protein produced by untreated CHO cells” value turn out when “TRU-015: recombinant single chain protein (SMIP) that binds CD20; 2H7 variable regions, CSS hinge, human IgG1 CH2 and CH3; SEQ ID NO: 4” was run?
**A.** similar

— US20100150948A1, “MATERIALS AND METHODS FOR IMPROVED IMMUNOGLYCOPROTEINS” (TRUBION PHARMACEUTICALS, INC., priority 2006, published 2010)
